# Measured values reported in patent publication US8110193B2, “Methods for conditioning a subject for hematopoietic cell transplantation” (City of Hope, priority 2007, dated 2012).
# Test system: anti-CD3-activated T cells
# Assay: T cell proliferation by anti-CD3-stimulation
# Settings: 1 μM SAHA
smiles,measurement,value
"O=C(CCCCCCC(=O)Nc1ccccc1)NO [SAHA, suberoylanilide hydroxamic acid]",proliferation of anti-CD3-activated T cells,no proliferation at all
